Target: T1, 17-beta-hydroxysteroid dehydrogenase type 1 (Homo sapiens, UniProt P14061)
T1 sequence (P14061 whole entry): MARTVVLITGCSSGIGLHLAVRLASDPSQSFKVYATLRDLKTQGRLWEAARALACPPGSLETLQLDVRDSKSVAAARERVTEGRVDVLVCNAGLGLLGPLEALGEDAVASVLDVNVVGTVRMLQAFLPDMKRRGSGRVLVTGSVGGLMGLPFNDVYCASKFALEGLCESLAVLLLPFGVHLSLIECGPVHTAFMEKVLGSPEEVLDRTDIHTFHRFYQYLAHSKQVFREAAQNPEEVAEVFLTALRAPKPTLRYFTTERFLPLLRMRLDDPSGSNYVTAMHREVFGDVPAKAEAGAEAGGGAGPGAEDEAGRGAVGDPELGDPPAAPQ
Assay: Inhibition of 17beta-HSD1 in human placental cytosolic fraction using [3H]E1 as substrate assessed as formation of E2 by HPLC analysis

Compound `COc1cccc(N(C)C(=O)c2ccc(-c3cccc(OC)c3F)s2)c1` has an IC50 of over 50 µM.

Reference: ChEMBL document CHEMBL2321834 (J Med Chem, 2013)
